Measured values taken from patent US20150314007A1, “LINKER-PAYLOAD MOLECULE CONJUGATES” (GLYKOS FINLAND OY, priority 2012, published 2015).

Tested on: Human ovarian cancer cell line SKOV-3
Assay: In vitro cytotoxicity, SKOV-3 cell viability (PrestoBlue)
Settings: SKOV-3, applied to the cell culture medium

For “N-(6-azido-6-deoxy-D-galactosyl)-MMAF [Compound 4]”, the “cytotoxicity compared with 1 (MMAF)” value was “equally or only slightly less cytotoxic”.
With “N-(6-O-propargyl-D-galactosyl)-MMAF [Compound 3]” the “cytotoxicity compared with 1 (MMAF)” value was “equally or only slightly less cytotoxic”.
